Reference: PubChem BioAssay (NCI)
Some results for these compounds are left out of this collection, so the calls shown say nothing about other tests.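 Tested at 5 concentrations; 48 h exposure; 96-well plates; endpoints linearly interpolated, else capped at highest concentration. Abbreviation: GI50, concentration required for 50% inhibition of growth. TGI is the concentration that stops growth completely.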

Tests used:
Assay in all cases: inhibition of tumour cell growth, NCI panel, 48 h
[1] = test system: SF-268 CNS
[2] = test system: SR leukemia
[3] = test system: HCT-15 colon
[4] = test system: OVCAR-3 ovarian
[5] = test system: UACC-257 melanoma
[6] = test system: MCF7 breast
[7] = test system: MDA-MB-231 breast
[8] = test system: SNB-75 CNS
[9] = test system: COLO 205 colon
[10] = test system: UACC-62 melanoma
[11] = test system: KM12 colon
[12] = test system: MALME-3M melanoma
[13] = test system: NCI/ADR-RES ovarian
[14] = test system: DU-145 prostate
[15] = test system: SK-MEL-5 melanoma
[16] = test system: M14 melanoma
[17] = test system: MDA-N
[18] = test system: RXF 393 renal
[19] = test system: ACHN renal
[20] = test system: PC-3 prostate
[21] = test system: EKVX NSCLC
[22] = test system: K-562 leukemia
[23] = test system: CCRF-CEM leukemia
[24] = test system: SNB-19 CNS
[25] = test system: BT-549 breast
[26] = test system: HCT-116 colon
[27] = test system: SN12C renal
[28] = test system: MDA-MB-435
[29] = test system: MOLT-4 leukemia
[30] = test system: NCI-H226 lung
[31] = test system: HOP-62 NSCLC
[32] = test system: HL-60(TB) leukemia
[33] = test system: SF-295 CNS
[34] = test system: SK-MEL-28 melanoma
[35] = test system: NCI-H23 lung
[36] = test system: HCC-2998 colon
[37] = test system: UO-31 renal
[38] = test system: NCI-H522 lung
[39] = test system: OVCAR-5 ovarian
[40] = test system: T-47D breast
[41] = test system: SF-539 CNS
[42] = test system: TK-10 renal
[43] = test system: 786-0 renal
[44] = test system: SW-620 colon
[45] = test system: RPMI-8226 leukemia
[46] = test system: HT29 colon
[47] = test system: SK-OV-3 ovarian
[48] = test system: IGROV1 ovarian
[49] = test system: A549 NSCLC
[50] = test system: OVCAR-8 ovarian
[51] = test system: LOX IMVI melanoma
[52] = test system: U251 CNS

Work on `CC(C)/C=C\C(O)(C(=O)OC1CN2CCC1CC2)c1ccccc1` (centres undefined) yielded a GI50 [1] of over 100 µM, a TGI [1] of over 100 µM and a GI50 [2] of over 100 µM. For the same compound, the TGI [2] was over 100 µM, the GI50 [3] was over 100 µM and the TGI [3] was over 100 µM. It also gave a GI50 [4] of over 100 µM, a TGI [4] of over 100 µM and a GI50 [5] of over 100 µM. For the same compound, the TGI [5] was over 100 µM, the GI50 [6] was over 100 µM and the TGI [6] was over 100 µM. It also gave a GI50 [7] of over 100 µM, a TGI [7] of over 100 µM and a GI50 [8] of over 100 µM. The TGI [8] was over 100 µM, the GI50 [9] was over 100 µM and the TGI [9] was over 100 µM. It also gave a GI50 [10] of over 100 µM, a TGI [10] of over 100 µM and a GI50 [11] of over 100 µM. It also gave a TGI [11] of over 100 µM, a GI50 [12] of over 100 µM and a TGI [12] of over 100 µM. For the same compound, the GI50 [13] was 25.2 µM, the TGI [13] was 84.1 µM and the GI50 [14] was over 100 µM. For the same compound, the TGI [14] was over 100 µM, the GI50 [15] was over 100 µM and the TGI [15] was over 100 µM. It also gave a GI50 [16] of over 100 µM, a TGI [16] of over 100 µM and a GI50 [17] of over 100 µM. For the same compound, the TGI [17] was over 100 µM, the GI50 [18] was over 100 µM and the TGI [18] was over 100 µM. For the same compound, the GI50 [19] was over 100 µM, the TGI [19] was over 100 µM and the GI50 [20] was over 100 µM. The TGI [20] was over 100 µM, the GI50 [21] was over 100 µM and the TGI [21] was over 100 µM. For the same compound, the GI50 [22] was over 100 µM, the TGI [22] was over 100 µM and the GI50 [23] was over 100 µM. It also gave a TGI [23] of over 100 µM, a GI50 [24] of over 100 µM and a TGI [24] of over 100 µM. It also gave a GI50 [25] of over 100 µM, a TGI [25] of over 100 µM and a GI50 [26] of over 100 µM. For the same compound, the TGI [26] was over 100 µM, the GI50 [27] was over 100 µM and the TGI [27] was over 100 µM. The GI50 [28] was over 100 µM, the TGI [28] was over 100 µM and the GI50 [29] was over 100 µM. For the same compound, the TGI [29] was over 100 µM, the GI50 [30] was over 100 µM and the TGI [30] was over 100 µM. For the same compound, the GI50 [31] was over 100 µM, the TGI [31] was over 100 µM and the GI50 [32] was over 100 µM. The TGI [32] was over 100 µM, the GI50 [33] was over 100 µM and the TGI [33] was over 100 µM. The GI50 [34] was over 100 µM, the TGI [34] was over 100 µM and the GI50 [35] was over 100 µM. It also gave a TGI [35] of over 100 µM, a GI50 [36] of over 100 µM and a TGI [36] of over 100 µM. It also gave a GI50 [37] of 57.6 µM, a TGI [37] of over 100 µM and a GI50 [38] of over 100 µM. For the same compound, the TGI [38] was over 100 µM, the GI50 [39] was 85.4 µM and the TGI [39] was over 100 µM. For the same compound, the GI50 [40] was over 100 µM, the TGI [40] was over 100 µM and the GI50 [41] was over 100 µM. For the same compound, the TGI [41] was over 100 µM, the GI50 [42] was over 100 µM and the TGI [42] was over 100 µM. The GI50 [43] was over 100 µM, the TGI [43] was over 100 µM and the GI50 [44] was over 100 µM. The TGI [44] was over 100 µM, the GI50 [45] was over 100 µM and the TGI [45] was over 100 µM. It also gave a GI50 [46] of over 100 µM, a TGI [46] of over 100 µM and a GI50 [47] of over 100 µM. For the same compound, the TGI [47] was over 100 µM, the GI50 [48] was over 100 µM and the TGI [48] was over 100 µM. For the same compound, the GI50 [49] was over 100 µM, the TGI [49] was over 100 µM and the GI50 [50] was over 100 µM. It also gave a TGI [50] of over 100 µM, a GI50 [51] of over 100 µM and a TGI [51] of over 100 µM. It also gave a GI50 [52] of over 100 µM and a TGI [52] of over 100 µM.
